Earlier results as cited in patent US20050143441A1, “Novel medical combination treatment of obesity involving 4,5-dihydro-1H-pyrazole derivatives having CB1-antagonistic activity” (priority 2003, published 2005).

By UniProt entry, the sequences of proteins in these tests, tags left out.
UniProt P00591, whole entry: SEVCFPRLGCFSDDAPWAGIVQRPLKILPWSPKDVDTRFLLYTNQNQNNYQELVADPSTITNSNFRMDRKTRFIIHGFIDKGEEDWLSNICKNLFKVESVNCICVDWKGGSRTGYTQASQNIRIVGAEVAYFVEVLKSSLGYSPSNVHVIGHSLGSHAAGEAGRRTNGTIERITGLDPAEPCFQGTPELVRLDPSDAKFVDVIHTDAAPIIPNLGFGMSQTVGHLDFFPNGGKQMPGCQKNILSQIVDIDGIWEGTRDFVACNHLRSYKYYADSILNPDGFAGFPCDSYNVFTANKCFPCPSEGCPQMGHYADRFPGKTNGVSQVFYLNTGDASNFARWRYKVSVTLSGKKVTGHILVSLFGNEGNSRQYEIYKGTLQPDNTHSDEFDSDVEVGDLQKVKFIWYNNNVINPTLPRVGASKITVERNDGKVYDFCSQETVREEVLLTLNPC

Molecular target: porcine pancrease lipase (Sus scrofa, UniProt P00591)

## CCCCC/C=C\C/C=C\C[C@@H](C[C@@H]1OC(=O)[C@H]1CCCCCC)OC(=O)[C@H](CC(C)C)NC=O
  IC50 for inhibition of hydrolysis of triolein by porcine pancrease lipase: 0.07 µg/mL
